Data as given in patent US10980754B2, “Anti-fungal compounds” (SAINT LOUIS UNIVERSITY, priority 2016, dated 2021).

How the values were obtained:
[1] = Cytotoxicity in hepatoma cells (MTS); conditions: human
[2] = tested on: C. neoformans var grubii, KN99; assay: Inhibition of C. neoformans growth, limiting dilution assay (MIC); assay type: cell-based; conditions: Cryptococcus neoformans

Q: What does the source list for `O=c1cccccc1S` [Compound 363]?
A: CC50 at 72 h [1]: 21 µM; MIC [2]: 0.2 µM (≈ 0.0276 µg/mL)

Converted amounts (≈) assume the structure as drawn.
